Measurements taken from PubChem BioAssay AID869 (SRMLSC, 2007).
The list shows a part of the results, in another mix than the full data. Activity calls are given as the source filed them.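 Rule for the calls: active = inhibition over a set limit, the all-compound mean plus 3 SD, in both replicate runs; inconclusive = over that limit in just one replicate run; inactive = at or under that limit in both runs.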

Assay: inhibitors of the yeast RAM network, pilot screen, dse1pr::URA3 reporter, 5-FOA selection (AID 869);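 note: 0% = DMSO wells with no growth and 100% = 10 µM 1-NA-PP1 with full growth; RAM network block rescues cells from 5-FOA so hits raise OD615 growth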
Conditions: S. cerevisiae dse1pr::URA3 5-FOA growth, OD615, 2 d; at 10 µM; hits give high values; strain carries analog-sensitive mutant Cbk1 kinase

SMILES	inhibition
Fc1ccccc1NC1CCN(Cc2ccccc2)CC1	inactive: 1.87%
